From PubChem
ALOX12 inh = blocks human arachidonate 12S-lipoxygenase. P18054. purified 12hLO, xylenol orange hydroperoxide absorbance. Potency, µM (doses to about 108 µM), without a hit: top-dose activity change, negative = inhibition, most hits filed as inhibitors. actives 1.1% (n = 580,000); also: potency is read from the fitted curve at half-maximal effect; % is scaled to controls: 0 for no effect and ±100 for the full control effect
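Purified human 12hLO at 150 nM in 25 mM Hepes, 0.01% Triton X-100, pH 7.0, preincubated 15 min at room temperature with compound. Reaction started with 40 uM arachidonic acid, 30 min at room temperature. Hydroperoxide measured by Fe-xylenol orange, 573/405 nm absorbance ratio.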
PINK1 expr mod = changes PINK1 expression; PINK1 immunofluorescence, high-content cytometry, 24 h; actives 0.2% (n = 410,000); Potency, µM (highest dose often 76.6 µM), for the others: at the highest dose activation (PINK1 increase), most hits filed as activators; active = well fitted activation curve with a large enough effect; inconclusive = small, poorly fitted or top-dose-only effect; cell line not stated here; also: potency is read from the fitted curve at half-maximal effect; % of control where 0% means no effect; nearly all actives have a fitted effect of over 65% in size
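Readout is PINK1 immunofluorescence, quantified alongside mitochondrial, cell and nuclear markers by laser-scanning microplate cytometry. Cells from a stable line were exposed to compound titrations (5 concentrations) for 24 hours, with CCCP controls.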
ERG-DNA inh = blocks human ERG Ets domain binding to DNA; P11308; fluorescence polarization, His-ERG Ets domain / labelled DNA; Potency, µM (highest dose often 76.9 µM), for the others: at the top dose FP activity, negative = inhibition, most hits filed as inhibitors; actives 0.028% (n = 370,000); active = well fitted inhibition curve with a large enough effect in the polarisation, with a control signal flat; inconclusive = small, poorly fitted or top-dose-only effect, or effect the other way, or a change in a side signal; inactive = no such curve, though single readings can be large or run the other way; the % refers to the polarisation;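 also: polarization taken with two DNA probes labelled with fluorescein and Texas red; potency is read from the fitted curve at half-maximal effect; % of control where 0% means no effect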
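His-tagged ERG Ets domain (1 uM in the protein solution; 300mM KCl, 50mM Tris-HCl, 1mM EDTA, 1mM DTT, pH 7.5) received compound, then a probe mix of 5 nM fluorescein-DNA and 100nM Texas-615-DNA. Fluorescence polarization was read for both dyes.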
miR-21 FLuc = miR-21 reporter, rising signal | HeLa miR-21 FLuc reporter, luciferase, 48 h | Potency, µM (top dose mostly 38.3 µM), inactives show at the top dose reporter change, positive = more light | 340,000 tested, under 10 active | AID 2288; active = well fitted rising curve with a large enough effect; inconclusive = small, poorly fitted or top-dose-only effect; inactive = no such curve, though single readings can be large or run the other way;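 further: % of control where 0% means no effect; miR-21 action dims this reporter so a rising signal means less miR-21 action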
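Using DMEM plus 10% FBS, HeLa miR-21-FLuc cells are incubated with test compounds (final up to about 40uM) for 48 hours; firefly luciferase signal is then imaged following reagent-mediated lysis.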
PTHR1 ag = PTHR1 (human) receptor agonism; actives 0.075% (n = 410,000); HEK293 GP2 PTHR1 cells, GloSensor cAMP luminescence, 1 h; Potency, µM (series often up to 115 µM), inactives show top-dose activation, hits mostly activators; AID 743266; Q03431; also: potency is read from the fitted curve at half-maximal effect; nearly all actives have a fitted effect of over 55% in size
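HEK-293-derived GP2 cells expressing PTHR1 and a GloSensor cAMP reporter, 3,000/well, plated overnight, given luciferin plus IBMX (each 0.5 mM as added) for 1 h at 37 °C, then compound for 1 h at 37 °C. Luminescence was read after 15 min at room temperature.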
Giardia killer = kills Giardia lamblia; Giardia lamblia trophozoite viability; activity change, % at 7.66 µM, hits read low; actives 0.15% (n = 340,000); in the data active = activity change below about -80%; inconclusive = between about -30% and that limit;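 also: parasites exposed to compound for two days anaerobically before the ATP read; % is scaled to controls: 0 for no effect and ±100 for the full control effect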
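Luminescence from cellular ATP indicates surviving trophozoites (100 cells/well) following 48 hrs anaerobic compound treatment at 37 deg C; signal develops 15-30 min at room temperature.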
Active calls of the source: *. An excerpt weighted towards active compounds, which were near 1.3% of everything screened. Unless noted, calls follow the shape of the dose curve; as a rule, active = well fitted curve in the direction sought with a large enough effect; inconclusive = small, poorly fitted or top-dose-only effect, or another doubt; inactive = no such curve, though single readings can be large; an effect the other way counts as inactive or inconclusive.

What do the screens show for `CC[C@H]1OC(=O)[C@H](C)C(=O)[C@H](C)[C@@H](O[C@H]2O[C@H](C)C[C@H](N(C)C)[C@@H]2O)[C@](C)(OC)C[C@@H](C)C(=O)[C@H](C)[C@H]2N(CCCCn3cnc(-c4cccnc4)c3)C(=O)O[C@]12C`?
ALOX12 inh: 4.85µM*

Results for CN(/N=C/c1cc(Br)cc(Br)c1O)c1ccccc1 ?
ALOX12 inh: -19.0%; PINK1 expr mod: 3.6%; ERG-DNA inh: 3.3%; miR-21 FLuc: -3.7%; PTHR1 ag: -14.5%; Giardia killer: 8.1

How did Cc1c(N=Cc2cc(Br)cc(Br)c2O)cccc1C(=O)O do in these assays?
ALOX12 inh: 50.1µM*; PINK1 expr mod: -2.1%; ERG-DNA inh: 1.3%; miR-21 FLuc: -0.8%; PTHR1 ag: inactive; Giardia killer: -19.0

What do the screens show for `COc1ccc(Br)cc1/C=N/Nc1cccc(C(=O)O)c1`?
ALOX12 inh: inconclusive; PINK1 expr mod: 2.4%; ERG-DNA inh: -8.8%; miR-21 FLuc: -47.9%; PTHR1 ag: inactive; Giardia killer: 3.8

Results for O=C(O)c1cccc(N/N=C/c2cc(Br)cc(Br)c2O)c1 ?
ALOX12 inh: 44.7µM*; PINK1 expr mod: 3.9%; ERG-DNA inh: -0.4%; miR-21 FLuc: -64.8%; PTHR1 ag: -13.1%; Giardia killer: -4.8

Results for Clc1ccc(-n2nnc(-c3nccs3)n2)cc1Cl ?
ALOX12 inh: 5.62µM*; PINK1 expr mod: 0.7%; ERG-DNA inh: -3.0%; miR-21 FLuc: -59.4%; PTHR1 ag: -91.6%; Giardia killer: -12.0

What do the screens show for `Cc1ccc(-n2nnc(-c3nccs3)n2)cc1`?
ALOX12 inh: -21.0%; PINK1 expr mod: 1.2%; ERG-DNA inh: -2.5%; miR-21 FLuc: 25.6%; PTHR1 ag: -8.7%; Giardia killer: inconclusive

What do the screens show for `COc1cc(CC(=O)Nc2cc(S(=O)(=O)N3CCCCC3)ccc2C)cc(OC)c1OC`?
ALOX12 inh: 22.4µM*

What do the screens show for `O=C(Nc1ccc(S(=O)(=O)N2CCOCC2)cc1)c1ccc([N+](=O)[O-])o1`?
ALOX12 inh: -36.2%; PINK1 expr mod: 1.7%; ERG-DNA inh: 13.6%; miR-21 FLuc: 6.3%; PTHR1 ag: -9.3%; Giardia killer: -83.0*

What do the screens show for `O=C(Nc1ccc(N2CCOCC2)cc1)c1ccc([N+](=O)[O-])o1`?
ALOX12 inh: 8.6%; PINK1 expr mod: 1.2%; ERG-DNA inh: -2.4%; miR-21 FLuc: -31.5%; PTHR1 ag: -10.6%; Giardia killer: -84.9*

How did O=C(Nc1ccc(Cc2ccncc2)cc1)c1ccc([N+](=O)[O-])o1 do in these assays?
ALOX12 inh: 21.3%; PINK1 expr mod: 0.0%; ERG-DNA inh: 0.1%; miR-21 FLuc: -0.2%; PTHR1 ag: inactive; Giardia killer: -88.3*

Results for COc1ccc(S(=O)(=O)N2CCCCC2)cc1NC(=O)c1ccc([N+](=O)[O-])o1 ?
ALOX12 inh: -3.6%; PINK1 expr mod: 4.9%; ERG-DNA inh: -6.5%; miR-21 FLuc: 7.5%; PTHR1 ag: -5.2%; Giardia killer: -94.9*

How did Cc1ccc(C(=O)Nc2ccc(S(=O)(=O)N3CCCC3)cc2)o1 do in these assays?
ALOX12 inh: 5.3%; PINK1 expr mod: 3.3%; ERG-DNA inh: -2.8%; miR-21 FLuc: -1.7%; PTHR1 ag: -6.7%; Giardia killer: -0.6

Results for CCn1nnc(NC(=O)c2ccc([N+](=O)[O-])o2)n1 ?
ALOX12 inh: -0.5%; PINK1 expr mod: 0.9%; ERG-DNA inh: -1.2%; miR-21 FLuc: 16.7%; PTHR1 ag: -4.2%; Giardia killer: -103.0*

What do the screens show for `O=C(O)/C=C/C(=O)Nc1ccc(N2CCOCC2)cc1`?
ALOX12 inh: 31.6µM*

Two entries drawn at random from those above, as already listed:
Results for CCn1nnc(NC(=O)c2ccc([N+](=O)[O-])o2)n1 ?
ALOX12 inh: -0.5%; PINK1 expr mod: 0.9%; ERG-DNA inh: -1.2%; miR-21 FLuc: 16.7%; PTHR1 ag: -4.2%; Giardia killer: -103.0*

Results for O=C(O)c1cccc(N/N=C/c2cc(Br)cc(Br)c2O)c1 ?
ALOX12 inh: 44.7µM*; PINK1 expr mod: 3.9%; ERG-DNA inh: -0.4%; miR-21 FLuc: -64.8%; PTHR1 ag: -13.1%; Giardia killer: -4.8

Next compounds.
What do the screens show for `CCCCn1nnc(NC(=O)c2ccc(-c3ccccc3[N+](=O)[O-])o2)n1`?
ALOX12 inh: -3.7%; PINK1 expr mod: -0.9%; ERG-DNA inh: -5.5%; miR-21 FLuc: -28.7%; PTHR1 ag: -4.3%; Giardia killer: 2.4

What do the screens show for `O=C(Nc1ccc(S(=O)(=O)N2CCCC2)cc1)c1ccc([N+](=O)[O-])o1`?
PINK1 expr mod: 2.2%; ERG-DNA inh: -6.7%; PTHR1 ag: -16.3%; Giardia killer: -81.2*

What do the screens show for `CCOc1cc(N2CCOCC2)c(OCC)cc1NC(=O)CSc1ncccn1`?
ALOX12 inh: 0.6%; PINK1 expr mod: -0.6%; ERG-DNA inh: 1.3%; miR-21 FLuc: -3.5%; PTHR1 ag: -2.8%; Giardia killer: -4.2

Results for CCOc1cc(N2CCOCC2)c(OCC)cc1NC(=O)CSc1ncccc1C(=O)O ?
ALOX12 inh: 11.2µM*; PINK1 expr mod: -0.3%; ERG-DNA inh: 7.0%; PTHR1 ag: inactive; Giardia killer: -16.2

What do the screens show for `CCOc1cc(N2CCOCC2)c(OCC)cc1NC(C)C(=O)N1CCN(CC)CC1` (stereo not given)?
ALOX12 inh: 3.16µM*; PINK1 expr mod: -1.0%; ERG-DNA inh: 3.6%; miR-21 FLuc: 3.4%; PTHR1 ag: inactive; Giardia killer: 3.4

Results for COc1ccc2c(c1)c1c(c(=O)n(Cc3ccccc3)c(=O)n1CC(=O)Nc1ccccc1F)n2C ?
ALOX12 inh: -26.9%; PINK1 expr mod: 0.5%; ERG-DNA inh: 2.0%; miR-21 FLuc: -10.1%; PTHR1 ag: inconclusive

What do the screens show for `N#Cc1c(-c2ccc(Cl)cc2Cl)csc1N`?
ALOX12 inh: 20µM*

Results for Cc1ccc(-c2nc(N)nc(N)n2)c(C)c1 ?
ALOX12 inh: 16.2%; PINK1 expr mod: 1.5%; ERG-DNA inh: -2.5%; PTHR1 ag: inactive; Giardia killer: -4.5

Results for Cc1ccc(-c2csc(N)c2C#N)c(C)c1 ?
ALOX12 inh: 22.4µM*

What do the screens show for `Cc1cc(=S)n2cn[nH]c2n1`?
ALOX12 inh: 0.447µM*

Results for CNc1nccc(N2CCC(CC(=O)N3CCN(C(C)=O)CC3)CC2)n1 ?
ALOX12 inh: -5.2%

How did Cc1cn([C@H]2C[C@H](O)[C@@H](CNCC3=Cc4cc(O)ccc4OC3)O2)c(=O)[nH]c1=O do in these assays?
ALOX12 inh: -5.0%; PINK1 expr mod: 0.7%; PTHR1 ag: -24.9%

How did Cc1ccc2c(=O)cc(C(=O)N(Cc3ccccc3)Cc3ccco3)oc2c1C do in these assays?
ALOX12 inh: 35.5µM*

What do the screens show for `Cc1ccc2c(CN(C)Cc3ccccc3)cc(=O)oc2c1C`?
ALOX12 inh: 0.0%; PINK1 expr mod: 4.0%; ERG-DNA inh: 35.5µM*; miR-21 FLuc: -16.3%; PTHR1 ag: -36.4%; Giardia killer: 7.9

How did CCOC(=O)C1(Cc2ccc(F)cc2F)CCCN(C(=O)c2cccnc2SC)C1 (stereo not given) do in these assays?
ALOX12 inh: 17.8%

A section taken from the entries so far:
What do the screens show for `Cc1ccc2c(CN(C)Cc3ccccc3)cc(=O)oc2c1C`?
ALOX12 inh: 0.0%; PINK1 expr mod: 4.0%; ERG-DNA inh: 35.5µM*; miR-21 FLuc: -16.3%; PTHR1 ag: -36.4%; Giardia killer: 7.9

How did CCOC(=O)C1(Cc2ccc(F)cc2F)CCCN(C(=O)c2cccnc2SC)C1 (stereo not given) do in these assays?
ALOX12 inh: 17.8%
